Assay: Selectivity assay on THP-1 macrophages (Alamar Blue)
Assay type: cell-based
Conditions: human, 120 h incubation, mean ± SD, n = 2 biological replicates
Protocol: Leishmania donovani axenic cultures (strain MHOM/ET/67/HU3) were maintained in M199 medium (pH 7.4) supplemented with 10% heat-inactivated fetal calf serum (FCS) and grown at 28°C [22].
After incubation for 72 hours (5% CO2, 37°C), medium was aspirated, compounds were added in serial dilutions (100 μL) and the plates were incubated for 120 h. All plates included negative controls and doxorubicin as a positive control. Following incubation, 10 μL of Alamar Blue was added to each well and then the plates were incubated for 3 hours. […] Growth inhibition was expressed as a percentage of the fluorescence of the negative control wells. IC50 values were determined as described above for the promastigote and amastigote assays.

C/C=C(\C)[C@H](O)[C@H](C)/C=C(C)/C=C/C/C(C)=C/Cc1nc(OC)cc(O)c1C [Compound 1, Mer-A2026B]
CC50 at 120 h: > 64 µM

Source: publication PMC6695191, “Antifungal compounds from Streptomyces associated with attine ants also inhibit Leishmania donovani” (PLoS Neglected Tropical Diseases, 2019)
